Patent US12516056B2, “Compounds for inhibition of janus kinase 1” (MANKIND PHARMA LTD., priority 2019, dated 2026)

By UniProt entry, the sequences of proteins in these tests, tags left out. Where a name states a change or a piece, a line headed by the entry shows the natural chain unless it says otherwise.
UniProt P29597: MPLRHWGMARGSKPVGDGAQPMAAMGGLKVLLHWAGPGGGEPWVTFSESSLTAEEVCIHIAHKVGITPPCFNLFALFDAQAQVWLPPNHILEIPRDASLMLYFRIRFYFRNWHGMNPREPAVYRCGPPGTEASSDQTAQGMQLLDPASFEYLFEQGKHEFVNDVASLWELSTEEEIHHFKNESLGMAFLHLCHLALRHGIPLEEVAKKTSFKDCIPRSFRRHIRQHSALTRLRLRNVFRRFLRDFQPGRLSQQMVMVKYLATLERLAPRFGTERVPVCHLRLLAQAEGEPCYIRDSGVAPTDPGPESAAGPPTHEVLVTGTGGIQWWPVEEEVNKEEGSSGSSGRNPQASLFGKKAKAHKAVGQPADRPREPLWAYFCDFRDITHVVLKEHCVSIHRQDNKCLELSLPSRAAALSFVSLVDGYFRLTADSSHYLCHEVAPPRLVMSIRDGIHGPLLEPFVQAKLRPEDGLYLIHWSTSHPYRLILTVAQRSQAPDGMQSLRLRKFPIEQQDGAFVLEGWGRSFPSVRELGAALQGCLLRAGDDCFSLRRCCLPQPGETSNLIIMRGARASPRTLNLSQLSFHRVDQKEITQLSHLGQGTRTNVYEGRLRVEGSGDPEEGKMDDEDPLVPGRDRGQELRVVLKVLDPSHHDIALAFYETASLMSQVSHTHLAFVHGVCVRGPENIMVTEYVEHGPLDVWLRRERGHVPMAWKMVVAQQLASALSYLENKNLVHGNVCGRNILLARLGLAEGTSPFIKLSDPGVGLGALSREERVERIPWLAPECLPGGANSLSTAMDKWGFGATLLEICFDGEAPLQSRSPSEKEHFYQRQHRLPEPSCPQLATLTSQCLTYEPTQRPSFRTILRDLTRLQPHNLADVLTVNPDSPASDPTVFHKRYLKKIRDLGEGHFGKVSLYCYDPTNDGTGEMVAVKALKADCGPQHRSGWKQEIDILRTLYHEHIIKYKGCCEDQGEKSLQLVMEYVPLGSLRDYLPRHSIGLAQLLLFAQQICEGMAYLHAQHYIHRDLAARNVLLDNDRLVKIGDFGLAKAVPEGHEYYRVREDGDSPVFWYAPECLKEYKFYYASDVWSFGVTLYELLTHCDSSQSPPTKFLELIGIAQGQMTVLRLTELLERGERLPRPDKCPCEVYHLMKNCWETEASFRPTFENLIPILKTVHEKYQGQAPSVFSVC

Target: T1, Recombinant TYK2 (Homo sapiens, UniProt P29597)
T1 construct: purchased Carna Biosciences
Assay: JAK biochemical assay (LANCE Ultra TR-FRET), TYK2
Method: Recombinant JAK1, JAK2, JAK3 and TYK2 (Carna Biosciences) were used to develop biochemical assays in 50 mM HEPES pH 7.5, 1 mM EGTA, 10 mM MgCl2, 2 mM DTT and 0.01% Tween-20. […] The intensity of the light emission is proportional to the level of ULight substrate phosphorylation. Compounds which interfere with JAK enzyme activity show a lesser substrate phosphorylation and values are projected in terms of % inhibition in comparison to vehicle control.

## O=C(Nc1nc2cccc(-c3ccc(CN4CCS(=O)(=O)CC4)cc3)n2n1)C1CC1 [Filgotinib, filgotinib, reference compound]
  IC50: 490 nM
